One assay concerns the target DYRK1A (Homo sapiens (Human), UniProt Q13627). Kind of assay: DYRK1A kinase assay (HotSpot, Reaction Biology). In kind it is biochemical. The conditions noted are these: purified recombinant kinase, 10 μM ATP, room temperature 120 min.
The target in the next assay is DYRK1B (Homo sapiens (Human), UniProt Q9Y463). Kind of assay: DYRK1B kinase assay (HotSpot, Reaction Biology). In kind it is biochemical.

The chains behind the UniProt entries cited, without tags or fusion partners.
UniProt Q9Y463, whole entry: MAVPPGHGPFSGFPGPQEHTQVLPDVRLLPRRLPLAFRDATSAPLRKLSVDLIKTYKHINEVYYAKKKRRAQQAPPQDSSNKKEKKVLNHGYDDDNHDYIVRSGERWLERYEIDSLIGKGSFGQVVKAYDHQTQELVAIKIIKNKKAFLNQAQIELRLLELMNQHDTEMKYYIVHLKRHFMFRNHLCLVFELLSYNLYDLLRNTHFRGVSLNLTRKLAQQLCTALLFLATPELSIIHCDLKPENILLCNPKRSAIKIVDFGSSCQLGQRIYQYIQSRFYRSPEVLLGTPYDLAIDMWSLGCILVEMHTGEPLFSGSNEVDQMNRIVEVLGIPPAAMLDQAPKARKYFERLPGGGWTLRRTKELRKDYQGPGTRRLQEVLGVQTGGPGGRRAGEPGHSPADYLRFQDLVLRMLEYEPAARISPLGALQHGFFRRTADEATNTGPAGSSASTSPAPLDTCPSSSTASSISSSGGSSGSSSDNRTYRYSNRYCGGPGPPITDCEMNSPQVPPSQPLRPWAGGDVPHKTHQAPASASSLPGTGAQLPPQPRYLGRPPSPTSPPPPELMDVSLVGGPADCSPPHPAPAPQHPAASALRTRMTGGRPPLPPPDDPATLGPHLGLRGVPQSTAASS

Molecules are shown by their SMILES.

A word on the IC50: it is the midpoint of a concentration-inhibition curve.

On to `COC(=N)c1nc2ccc3ncnc(Nc4ccc5nc[nH]c5c4)c3c2s1` [Compound 59, Methyl 9-(1H-benzo[d]imidazol-6-ylamino)thiazolo[5,4-f]quinazoline-2-carbimidate], for which the IC50 on DYRK1A turned out to be 4.44 nM; against DYRK1B, 4.65 nM.

(Values after patent US9446044B2, “DYRK1 inhibitors and uses thereof” (DIAXONHIT, priority 2011, dated 2016).)
